Experiment [1] in a line: ITC binding of guests to host 1 (direct or competitive titration). Conditions: comparison of Table 1 values.
The test system of experiment [2] is male Swiss Webster (CFW) mice. Nature of the experiment: In vivo reversal of methamphetamine-induced hyperlocomotion. Particulars: 4.24 mM in D5W, 0.5 mg/kg, 0.022 mL infused; against all other treatments.

Only a part of the results on these compounds is given; other tests are left out.

For methamphetamine, the “Binding of host 1 compared with M1 (in words)” value in experiment [1] is on record as “less tightly than M1”. Moreover, the “Locomotion counts, methamphetamine only” value in experiment [2] is reported as “significant increase in locomotion counts”.
